In EP4644396A1 (Visionpharma (Nantong) Co., Ltd, priority 2022, dated 2024):

Target: T1, human TLR7 (Homo sapiens, UniProt Q9NYK1)
T1 sequence (Q9NYK1 27-1049): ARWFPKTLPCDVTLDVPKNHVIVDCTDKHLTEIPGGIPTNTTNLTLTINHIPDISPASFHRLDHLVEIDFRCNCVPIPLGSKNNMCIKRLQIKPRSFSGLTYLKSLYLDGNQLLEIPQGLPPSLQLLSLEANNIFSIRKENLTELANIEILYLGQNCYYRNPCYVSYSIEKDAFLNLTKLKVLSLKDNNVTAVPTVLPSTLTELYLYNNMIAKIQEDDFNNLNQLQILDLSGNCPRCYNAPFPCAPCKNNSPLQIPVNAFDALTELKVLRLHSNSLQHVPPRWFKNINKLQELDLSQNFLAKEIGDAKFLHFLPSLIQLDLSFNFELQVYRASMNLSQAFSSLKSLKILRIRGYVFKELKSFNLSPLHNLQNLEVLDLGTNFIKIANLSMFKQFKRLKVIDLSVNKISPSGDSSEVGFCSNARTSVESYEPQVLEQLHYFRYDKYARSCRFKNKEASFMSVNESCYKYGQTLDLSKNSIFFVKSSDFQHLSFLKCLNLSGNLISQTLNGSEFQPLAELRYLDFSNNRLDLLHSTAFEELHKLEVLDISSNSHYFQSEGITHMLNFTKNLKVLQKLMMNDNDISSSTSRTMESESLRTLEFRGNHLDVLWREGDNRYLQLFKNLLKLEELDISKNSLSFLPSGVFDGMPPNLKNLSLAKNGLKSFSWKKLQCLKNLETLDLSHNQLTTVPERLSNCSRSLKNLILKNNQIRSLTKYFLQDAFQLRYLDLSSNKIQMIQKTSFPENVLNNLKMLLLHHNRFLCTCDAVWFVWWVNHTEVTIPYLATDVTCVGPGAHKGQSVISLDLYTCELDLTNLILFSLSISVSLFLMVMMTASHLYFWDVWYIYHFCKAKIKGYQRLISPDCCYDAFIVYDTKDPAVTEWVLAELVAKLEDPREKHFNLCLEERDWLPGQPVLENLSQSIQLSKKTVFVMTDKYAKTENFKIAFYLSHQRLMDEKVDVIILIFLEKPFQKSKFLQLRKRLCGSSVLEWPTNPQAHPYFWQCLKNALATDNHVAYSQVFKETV
Assay: HEK-Blue hTLR7 SEAP reporter gene inhibition assay
Assay type: cell-based
Details: hTLR7 HEK-Blue cells, TLR7 ligand Gardiquimod 10 µM, 20 hours, SEAP by Quanti-blue; class symbols
Experimental: HEK-Blue cells with stable expression of human TLR7 or TLR8 were used in the evaluation of inhibitory activity of compounds in the present invention against TLR7 or TLR8, by using its ability to induce the SEAP reporting gene under the control of the fusion of IFN-β minimum promoters into five NF-κB and ap-1 binding sites, as follows: hTLR7 HEK-Blue cells (Invivogen, 80, 000 cells per well) or hTLR8 HEK-Blue cells (60, 000 cells per well) were added to a 96-well cell culture plate. A solution of the testing compounds were added to each well, with the final concentration of tested compounds in the medium ranged from 0.001 to 36 µM and the culture was incubated for 15 minutes. M5049 was used as positive controls in the testing.
Then a TLR7 ligand (Gardiquimod, purchased from MedChemExpress, with final concentration of ligand in cell culture medium kept at 10 µM) or a TLR8 ligand (purchased from MedChemExpress with final concentration in cell culture media at 10 µM) and the culture was incubated for 20 hours. According to the manufacturer's instructions, a HEK-Blue reagent Quanti-blue (Invivogen) was used to detect the SEAP levels in cell cultures. The half […] concentration or IC50 was calculated by using GraphPad Prism. The IC50 values were defined as A and B (Against hTLR7 EC50(µM): A < 0.05 µM, B > 0.05 µM; against hTLR8 EC 50(µM): A < = 0.1 µM, B > 0.1 µM; -, as untested). […]

In the case of “3-Fluoro-4-((4R,9S)-8-(2-(4-(2-hydroxyethyl)pyridoxine-1-yl)-2-oxyethyl)-4,9-dimethyl-3,4,7,8,9,10-hydropyridote [3 ', 4 ': 3, 4] pyrazole [1, 5-a] pyrazine-2 (1 H) - yl) pyrazole [1, 5-a] pyridine-7-nitrile [Example I-130]”, the IC50 is reported as < 50 nM.
